From patent publication US20250387379A1, “ARYL-ANILINE AND HETEROARYL-ANILINE COMPOUNDS FOR TREATMENT OF SKIN CANCERS” (NFLECTION THERAPEUTICS, INC., priority 2018, published 2025)

Protein sequences, listed by entry. Tags and fused reporters are not part of them.
UniProt Q02750, whole entry: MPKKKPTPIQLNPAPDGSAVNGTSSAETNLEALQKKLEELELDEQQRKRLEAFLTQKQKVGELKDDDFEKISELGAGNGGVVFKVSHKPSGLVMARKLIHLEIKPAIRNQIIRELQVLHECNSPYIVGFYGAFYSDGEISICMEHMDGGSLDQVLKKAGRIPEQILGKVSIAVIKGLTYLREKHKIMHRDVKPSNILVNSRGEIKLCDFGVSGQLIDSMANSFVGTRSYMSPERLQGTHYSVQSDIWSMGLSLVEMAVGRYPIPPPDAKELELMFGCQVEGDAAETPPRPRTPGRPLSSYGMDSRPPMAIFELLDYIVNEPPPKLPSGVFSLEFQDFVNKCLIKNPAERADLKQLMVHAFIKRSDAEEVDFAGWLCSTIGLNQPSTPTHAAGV

Biological target: MEK1 (Homo sapiens (Human), UniProt Q02750)
Assay: MEK Inhibition Assay-1 (33P-ATP, P81 filter-binding; Example 4)
Conditions: read-out: Assay 1: biochemical MEK IC50, Table 10, formula (IV)
Protocol: The following procedure can be used to measure biochemical activity. MEK1 inhibitory activity of compounds were tested using the following procedure. […] Nat Biotechnol. 2011, 29(11), 1039-45.
• Reaction buffer: 20 mM Hepes (pH 7.5), 10 mM MgCl2, 1 mM EGTA, 0.02% Brij35, 0.02 mg/mL BSA, 0.1 mM Na3VO4, 2 mM DTT, 1% DMSO • Enzyme: MEK1, Invitrogen cat #PV3303 • N-terminal His-tagged recombinant human full length protein, expressed in insect cells. Activated in vitro by RAF1. MW=49.2 kDa, GenBank Accession No. NP_002746. • Substrate: 5 μM ERK2 (K52R), • Kinase-dead mutant, (GenBank Accession No. NM_0011949), aa2-358 with N-terminal His6 tag, MW=43.63 kDa, expressed in E. coli.
The substrate was prepared in freshly prepared Reaction Buffer. The kinase was delivered into the substrate solution and gently mixed. Test compounds were delivered in 100% DMSO into the kinase reaction mixture by Acoustic technology (Echo550; nanolitter range), and incubated for 20 min at room temperature. ^33P-ATP was delivered into the reaction mixture to initiate the reaction. The reaction mixture was incubated for 2 hours at room temperature. Kinase activity was detected by P81 filter-binding method.

In the case of CC(=O)c1sc(Nc2ccc(I)cc2F)c(C(=O)NOCC2COC2)c1C, the IC50 is reported as 1 to 5 µM.
